This assay addresses T1, human CRF1 receptor (Homo sapiens, UniProt P34998).
T1 construct: expressed in transfected cells
T1 sequence (P34998 24-415): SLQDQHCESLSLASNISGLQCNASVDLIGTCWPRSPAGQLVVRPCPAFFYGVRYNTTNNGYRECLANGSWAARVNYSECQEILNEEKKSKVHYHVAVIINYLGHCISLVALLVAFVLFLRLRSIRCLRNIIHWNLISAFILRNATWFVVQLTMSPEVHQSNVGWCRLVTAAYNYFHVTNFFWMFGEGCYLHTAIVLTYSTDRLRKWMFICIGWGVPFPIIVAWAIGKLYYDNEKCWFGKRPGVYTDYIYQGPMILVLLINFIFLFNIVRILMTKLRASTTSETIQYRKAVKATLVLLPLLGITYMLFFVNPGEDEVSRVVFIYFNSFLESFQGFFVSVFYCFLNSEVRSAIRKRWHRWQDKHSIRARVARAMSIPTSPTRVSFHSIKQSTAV
The assay can be described thus: cAMP assay (adenylate cyclase stimulation) in cells transfected with CRF1 receptor. The class given is cell-based. The note with it: read-out: effective concentration of one-half maximal adenylate cyclase stimulation (EC50), human CRF1 receptor, cAMP production. (In general: Changes in cAMP serve as a functional read-out for many G protein-coupled receptors.)

Take oCRF: the EC50 was determined as 10 nM.

The record behind these values is US6723841B2, “Corticotropin-releasing factor2 receptors” (priority 1994, dated 2004).
